Ab-14 heavy chain CDR variants: yeast mating affinities

Data: MIT Lincoln Laboratory AlphaSeq set, Engelhart et al. 2022, doi:10.1038/s41597-022-01779-4, as distributed in FLAb.

Antigen: PDVDLGDISGINAS, a 14-residue peptide of the SARS-CoV-2 spike HR2 region.

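The library (AAYL49) carries one to three amino acid substitutions per variant, with no insertions or deletions. Affinity was read by AlphaSeq, a pooled yeast mating assay with surface-displayed partners. Mating (16 h, 30 °C) was followed by selection of diploids and sequencing of their barcodes. Each replicate has its own calibration line, from reference interactions of the BCL2 family. Each pool was mated in three replicate cultures.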

The variants keep the light chain, the linker and the frameworks of Ab-14 (scFv order VH, a 15-residue (Gly4Ser)3 linker, VL).
VH: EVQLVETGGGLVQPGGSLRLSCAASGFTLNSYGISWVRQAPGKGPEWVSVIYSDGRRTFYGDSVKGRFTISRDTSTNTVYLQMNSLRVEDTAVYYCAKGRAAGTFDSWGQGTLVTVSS
VL: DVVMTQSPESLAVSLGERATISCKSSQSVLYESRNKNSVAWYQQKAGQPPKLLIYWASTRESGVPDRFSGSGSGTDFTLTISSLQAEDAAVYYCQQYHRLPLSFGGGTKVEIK

Changes read parent residue, position, new residue, counted from the first residue of the VH shown. The read-out is the apparent dissociation constant on a log10 scale (nM): the lower, the stronger. Replicates are averaged; those with no signal do not enter the mean. Where no diploid with the target was found in that replicate, the entry reads "nd": below detection, most likely a poor binder, though not proof of it.

{"changes": "S35Q S53E F59P", "log10 Kd (nM) by replicate": "nd / nd / 3.85", "mean log10 Kd (nM)": "3.85", "control signals": "2 of 9 (4.21)"}
{"changes": "Y60R K65I F105C", "log10 Kd (nM) by replicate": "nd / nd / 3.80", "mean log10 Kd (nM)": "3.80", "control signals": "2 of 9 (3.87)"}
{"changes": "N30M T104R F105L", "log10 Kd (nM) by replicate": "5.49 / nd / 4.00", "mean log10 Kd (nM)": "4.74", "control signals": "1 of 9 (4.24)"}
{"changes": "Y60H G99E A101V", "log10 Kd (nM) by replicate": "nd / nd / nd", "mean log10 Kd (nM)": "nd", "control signals": "0 of 9"}
{"changes": "S31V V50P S53I", "log10 Kd (nM) by replicate": "4.72 / nd / 3.86", "mean log10 Kd (nM)": "4.29", "control signals": "4 of 9 (4.37)"}
{"changes": "G26L S35C S53R", "log10 Kd (nM) by replicate": "nd / nd / nd", "mean log10 Kd (nM)": "nd", "control signals": "0 of 9"}
{"changes": "S53I Y60L", "log10 Kd (nM) by replicate": "nd / nd / 4.65", "mean log10 Kd (nM)": "4.65", "control signals": "2 of 9 (4.23)"}
{"changes": "S35V S107H", "log10 Kd (nM) by replicate": "nd / nd / nd", "mean log10 Kd (nM)": "nd", "control signals": "2 of 9 (4.63)"}
{"changes": "T28W F59N S107E", "log10 Kd (nM) by replicate": "nd / 2.88 / nd", "mean log10 Kd (nM)": "2.88", "control signals": "1 of 9 (3.83)"}
{"changes": "G26F I51M Y52I", "log10 Kd (nM) by replicate": "5.09 / nd / nd", "mean log10 Kd (nM)": "5.09", "control signals": "3 of 9 (4.17)"}
{"changes": "S35P V50E S63R", "log10 Kd (nM) by replicate": "nd / 4.31 / 5.61", "mean log10 Kd (nM)": "4.96", "control signals": "2 of 9 (4.68)"}
{"changes": "V64N A101K", "log10 Kd (nM) by replicate": "nd / nd / nd", "mean log10 Kd (nM)": "nd", "control signals": "1 of 9 (4.08)"}
{"changes": "L29T G33T I51M", "log10 Kd (nM) by replicate": "4.98 / 5.27 / nd", "mean log10 Kd (nM)": "5.13", "control signals": "0 of 9"}
{"changes": "T28C S35L D62Q", "log10 Kd (nM) by replicate": "nd / nd / nd", "mean log10 Kd (nM)": "nd", "control signals": "0 of 9"}
{"changes": "I34N R57I D62S", "log10 Kd (nM) by replicate": "nd / nd / nd", "mean log10 Kd (nM)": "nd", "control signals": "8 of 9 (4.48)"}
{"changes": "G33T R57V S63P", "log10 Kd (nM) by replicate": "nd / nd / nd", "mean log10 Kd (nM)": "nd", "control signals": "0 of 9"}
{"changes": "F27H I51F R57M", "log10 Kd (nM) by replicate": "4.29 / nd / nd", "mean log10 Kd (nM)": "4.29", "control signals": "2 of 9 (4.01)"}
{"changes": "N30A V50P Y52N", "log10 Kd (nM) by replicate": "nd / nd / nd", "mean log10 Kd (nM)": "nd", "control signals": "0 of 9"}
{"changes": "I34R Y52C G55T", "log10 Kd (nM) by replicate": "nd / nd / nd", "mean log10 Kd (nM)": "nd", "control signals": "2 of 9 (4.50)"}

The opening 3 entries, copied out:

changes,log10 Kd (nM) by replicate,mean log10 Kd (nM),control signals
S35Q S53E F59P,nd / nd / 3.85,3.85,2 of 9 (4.21)
Y60R K65I F105C,nd / nd / 3.80,3.80,2 of 9 (3.87)
N30M T104R F105L,5.49 / nd / 4.00,4.74,1 of 9 (4.24)

In this assay the parent's reference entry averaged 0.65; its copy inside this library read 4.11 (one replicate of three). Nonspecific signal, from three strains lacking the peptide, appeared in 15% of pairings of library AAYL49, centred on 4.06 (5% of these signals below 2.83); values are not corrected for it. For each scFv, signals with the empty controls are counted beside the result, with their mean in brackets.